Only a part is listed here, and it is no random draw. Activity calls are given as the source filed them.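 How the source made its calls: active means B-score of calcium response area above 5 SD of library B-scores, with initial fluorescence ratio within 5 SD of library; inactive means the rest.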
Biological target: Short transient receptor potential channel 4 (Mus musculus) (UniProt Q9QUQ5)
Assay: TRPC4 channel potentiators under submaximal DAMGO – cell-based, mouse TRPC4beta, HEK293 mu-opioid, Fluo-4 calcium, primary screen (AID 2227);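 on B-score: B-score of integrated fluorescence ratio over time as area under calcium response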
Conditions: DAMGO EC20, Fluo-4 Ca2+ flux, at 10 µM; hits give high values

Amino acid sequences for entries named in this document (tags omitted).
UniProt Q9QUQ5, whole entry: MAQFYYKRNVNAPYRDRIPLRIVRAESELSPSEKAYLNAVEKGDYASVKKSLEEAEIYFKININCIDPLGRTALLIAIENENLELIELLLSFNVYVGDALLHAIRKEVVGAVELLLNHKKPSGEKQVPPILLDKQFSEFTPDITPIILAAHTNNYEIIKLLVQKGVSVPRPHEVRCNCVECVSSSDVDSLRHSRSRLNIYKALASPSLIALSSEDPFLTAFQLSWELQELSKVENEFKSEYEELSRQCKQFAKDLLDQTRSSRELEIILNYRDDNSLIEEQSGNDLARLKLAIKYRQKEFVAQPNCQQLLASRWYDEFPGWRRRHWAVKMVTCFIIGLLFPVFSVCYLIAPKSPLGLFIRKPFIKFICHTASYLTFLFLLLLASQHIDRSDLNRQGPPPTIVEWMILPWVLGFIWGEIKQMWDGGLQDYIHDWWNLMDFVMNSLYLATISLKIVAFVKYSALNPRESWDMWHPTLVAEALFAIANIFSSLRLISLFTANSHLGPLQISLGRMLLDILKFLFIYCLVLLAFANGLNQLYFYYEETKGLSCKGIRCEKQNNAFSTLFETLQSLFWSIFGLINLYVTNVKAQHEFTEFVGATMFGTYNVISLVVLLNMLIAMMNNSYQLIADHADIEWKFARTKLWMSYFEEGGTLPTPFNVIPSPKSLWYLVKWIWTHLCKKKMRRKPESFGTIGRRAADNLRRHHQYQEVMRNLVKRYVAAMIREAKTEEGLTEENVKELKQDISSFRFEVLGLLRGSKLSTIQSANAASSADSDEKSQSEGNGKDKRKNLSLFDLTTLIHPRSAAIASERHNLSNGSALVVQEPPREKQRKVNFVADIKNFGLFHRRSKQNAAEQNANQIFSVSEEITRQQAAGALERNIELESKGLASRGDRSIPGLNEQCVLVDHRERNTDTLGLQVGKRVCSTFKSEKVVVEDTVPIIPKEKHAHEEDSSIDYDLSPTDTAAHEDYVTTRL

Compound | outcome | B-score
Nc1ccc2c(ccc3cccnc32)n1.O=[N+]([O-])c1cc([N+](=O)[O-])c(O)c([N+](=O)[O-])c1 | inactive | 
CP(=O)(OC12CC3CC(CC(C3)C1)C2)OC12CC3CC(CC(C3)C1)C2 | inactive | 
CCOC(=O)c1ccc(NP(C)(=O)Oc2ccc(Cl)cc2)cc1 (stereo not given) | inactive | 
O=C(Nc1cc([As](=O)(O)O)ccc1O)c1ccccc1 | inactive | 
O=[N+]([O-])c1ncn(CCn2ncnc2[N+](=O)[O-])n1 | inactive | 
CC(C)(C)C(=O)NC(Sc1ccncn1)C(Cl)(Cl)Cl (stereo not given) | inactive | 
O=C(O)CNc1ccc([As](=O)(O)O)cc1 | inactive | 
O=[N+]([O-])c1cccc(NC2=NCC(CBr)S2)c1 (stereo not given) | inactive | 
CCN(CC)CC(O)COC(=O)C(O)(c1ccccc1)C1CCCCC1 (stereo not given) | inactive | 
COc1ccc(OP(C)(=O)Nc2ccc(Br)cc2)cc1 (stereo not given) | inactive | 
COc1ccc(C2=NCC(CBr)S2)cc1 (stereo not given) | inactive | 
CP(=O)(Oc1ccccc1)N1CCOC1=O (stereo not given) | inactive | 
Cc1ccc(NP(=O)(Oc2ccccc2)Oc2ccccc2)nc1 | inactive | 
CCc1ccc(OP(C)(=O)Nc2cccnc2)cc1 (stereo not given) | inactive | 
O=[N+]([O-])c1cc([N+](=O)[O-])c(CCNc2ccccc2)c([N+](=O)[O-])c1 | inactive | 
CCc1nc2c(n1)c1c(non1O)c1c2no[n+]1[O-] | inactive | 
CC(=O)N1C2C3N(C(C)=O)C1C1N(C(C)=O)C(C(N1C(C)=O)N3C(C)=O)N2C(C)=O | inactive | 
O=[N+]([O-])c1cccc2n[nH]nc12 | inactive | 
COc1ccccc1OP(C)(=O)Nc1c(C)n(C)n(-c2ccccc2)c1=O (stereo not given) | inactive | 
O=C(OCCCN1CCCC1)C(O)(c1ccccc1)C1CCCCC1 (stereo not given) | inactive | 
CCN(/C(=N/P(=O)(N1CCOCC1)N1CCOCC1)N1CCOCC1)c1ccc(OC)cc1 | inactive | 
CP(=O)(Nc1ccc(Cl)cc1)Oc1ccc(F)cc1 (stereo not given) | inactive | 
COc1ccccc1OP(C)(=O)Nc1ccccc1Br (stereo not given) | inactive | 
Nc1ccc([As](=O)(O)c2ccc(N)cc2)cc1 | inactive | 
CC(C)(C)c1ccc(OP(C)(=O)O)cc1 | inactive | 

Compound | outcome | B-score
C[N+]1=C2C=CC=CC=C2SC12C([N+](=O)[O-])=CC([N+](=O)[O-])=C[C-]2[N+](=O)[O-] (stereo not given) | inactive | 
CC1CCN(C(=O)Oc2c(Cl)cc(Cl)c3cccnc23)CC1 | inactive | 
CC(C)=N/N=C(\N)N[N+](=O)[O-] | inactive | 
CN(C)C(=O)c1c([N+](=O)[O-])cc([N+](=O)[O-])cc1[N+](=O)[O-] | inactive | 
CN(C)C(=O)OCCc1n(C)cc[n+]1C | inactive | 
COc1ccccc1OP(C)(=O)Nc1ccc(Br)cc1 (stereo not given) | inactive | 
Cc1ccc(N/C(=N/P(=O)(N2CCOCC2)N2CCOCC2)N2CCOCC2)cc1 | inactive | 
NC(=O)c1cc([N+](=O)[O-])cc([N+](=O)[O-])c1N | inactive | 
CN1CCCC(OC(=O)C(c2ccccc2)c2ccccc2)C1 (stereo not given) | inactive | 
CN(C)CCOC(=O)C(O)(c1ccccc1)C1CCCC1 (stereo not given) | inactive | 
Clc1ccc(Cl)c(NC2=NCC(CBr)S2)c1 (stereo not given) | inactive | 
COc1ccccc1OP(=O)(Nc1ccc(C)cn1)Oc1ccccc1OC | inactive | 
COc1ccc(OP(C)(=O)Nc2ccccn2)cc1 (stereo not given) | inactive | 
Cc1ccc(OP(=O)(Nc2nccs2)Oc2ccc(C)cc2)cc1 | inactive | 
Oc1ccccc1CNc1ccccn1 | inactive | 
O=C(NC(Sc1ccncn1)C(Cl)(Cl)Cl)c1ccccc1 (stereo not given) | inactive | 
Cc1c2non([O-])c-2c(C)[n+](=O)[n+]1[O-] | inactive | 
Nc1cc(N)c2nonc2c1[N+](=O)[O-] | inactive | 
Cc1c(NP(C)(=O)Oc2ccc(C(C)C)cc2)c(=O)n(-c2ccccc2)n1C (stereo not given) | inactive | 
O=[N+]([O-])c1cc([N+](=O)[O-])c(Nc2ccccn2)c([N+](=O)[O-])c1 | inactive | 
CC(C)CC(=O)NC(Sc1ccc(Cl)cc1)C(Cl)(Cl)Cl (stereo not given) | inactive | 
CCc1ccc(OP(C)(=O)O)cc1 | inactive | 
CP(=O)(Nc1ccccn1)Oc1ccccc1 (stereo not given) | inactive | 
COc1ccccc1OP(C)(=O)Nc1ccc(C)cc1C (stereo not given) | inactive | 
O=P(Nc1nc2ccc(Cl)cc2s1)(c1ccccc1)c1ccccc1 | inactive | 

Compound | outcome | B-score
Cc1cc(C)cc(OP(C)(=O)Nc2cccc(C(F)(F)F)c2)c1 (stereo not given) | inactive | 
CC(=O)Nc1ccc([As](=O)(O)O)cc1 | inactive | 
O=C(O)c1ccccc1[As](=O)(O)O | inactive | 
COc1ccc(OP(C)(=O)Nc2ccccc2Br)cc1 (stereo not given) | inactive | 
Cc1cc(SC(NC(=O)c2ccc(F)cc2)C(Cl)(Cl)Cl)ncn1 (stereo not given) | inactive | 
CCOP(=O)(Nc1ccccc1)OCC | inactive | 
COc1ccccc1OP(C)(=O)Nc1ccc(C)c(C)c1 (stereo not given) | inactive | 
CN(C(=O)Cc1ccc(Cl)c(Cl)c1)[C@H]1CCCC[C@@H]1N1CCCC1 | inactive | 
Cc1ccc(NP(=O)(Oc2ccccc2F)Oc2ccccc2F)nc1 | inactive | 
O=[N+]([O-])c1cc([N+](=O)[O-])c(CCN2CCOCC2)c([N+](=O)[O-])c1 | inactive | 
Cc1nc2ccc3ccccc3c2o1.O=[N+]([O-])c1cc([N+](=O)[O-])c(O)c([N+](=O)[O-])c1 | inactive | 
Nc1cccc2ccc([As](=O)(O)O)cc12 | inactive | 
CP(=O)(Nc1ccc(Cl)cc1Cl)Oc1ccccc1 (stereo not given) | inactive | 
CP(=O)(OCCOc1ccccc1)OCCOc1ccccc1 | inactive | 
CCN(N=Nc1nonc1N)c1nonc1N | inactive | 
c1ccc(-c2nn[nH]n2)c(-c2nn[nH]n2)c1 | inactive | 
Cc1ccc(NP(=O)(Oc2cccc(C)c2)Oc2cccc(C)c2)nc1 | inactive | 
CCOC(=O)NC(Sc1ccccc1)C(Cl)(Cl)Cl (stereo not given) | inactive | 
O=C(NC1CCS(=O)(=O)C1)NP(=S)(Oc1ccccc1)Oc1ccccc1 (stereo not given) | inactive | 
CCNC(=S)/N=C(\N)N[N+](=O)[O-] | inactive | 
COc1ccc(OP(C)(=O)Nc2ccc(SC(F)(F)F)cc2)cc1 (stereo not given) | inactive | 
CCOC(=O)c1ccc(NP(C)(=O)Oc2ccc(F)cc2)cc1 (stereo not given) | inactive | 
O=C(OC1CN2CCC1CC2)c1ccccc1 (stereo not given) | inactive | 
CCC(=O)N1C2C3N(C(=O)CC)C1C1N(C(=O)CC)C(C(N1C(=O)CC)N3C(=O)CC)N2C(=O)CC | inactive | 
CCN(CC)CCCOC(=O)C(O)(c1ccccc1)C1CCCCC1 (stereo not given) |  | active: 10
